# Antibody variant affinities, Ab-14 light chain, assay B

Data: MIT Lincoln Laboratory AlphaSeq set, Li et al. 2023, doi:10.1038/s41467-023-39022-2, as distributed in FLAb.

Binding partner: SARS-CoV-2 spike HR2 peptide, sequence PDVDLGDISGINAS.

Parent: Ab-14, a human scFv built as VH, a 15-residue (Gly4Ser)3 linker, VL. Only the CDRs of the light chain vary.
VH: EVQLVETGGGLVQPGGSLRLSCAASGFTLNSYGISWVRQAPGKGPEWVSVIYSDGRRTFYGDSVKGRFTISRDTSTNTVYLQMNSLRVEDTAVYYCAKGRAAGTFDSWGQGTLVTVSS
VL: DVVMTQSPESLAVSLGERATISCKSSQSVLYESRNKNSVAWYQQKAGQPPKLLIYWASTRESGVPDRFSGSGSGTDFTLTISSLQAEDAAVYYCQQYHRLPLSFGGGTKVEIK

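The variants were designed computationally from a first round of random CDR variants and then made and measured. Their group label is 14L_GP_HC (GP: Gaussian process model; HC: hill climbing; a sequence that several methods proposed may carry one label only). Affinity was read by AlphaSeq, a pooled yeast mating assay with surface-displayed partners. Binding brings cells together so that they mate, and sequencing counts the barcode pairs among the diploids. The ratio of observed to expected reads was calibrated, replicate by replicate, on BCL2-family standards whose Kd was known from biolayer interferometry. There are six technical replicates.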

Changes read parent residue, position, new residue, counted from the first residue of the VL shown.
Values are log10 of the apparent Kd in nM; lower means stronger binding.
Where no diploid with the target was found in that replicate, the entry reads "ND": below detection, most likely a poor binder, though not proof of it.
Of ten entries with the parent sequence, four were seen in most replicates (averages 0.34 to 2.37), three in one and three in none, so single entries are noisy.
A sequence measured in both rounds can read differently, since the two assays cover different ranges.
Empty control strains, which show no peptide, gave a signal in 4% of pairings with all light chain designs; the median was 2.64 and 95% of these signals were weaker than 1.59. No background was subtracted. Also given: how often the same scFv was detected with the empty control strains, with their mean in brackets.
The authors' rule: three or more of the six replicates give a measured affinity, fewer mean a poor binder.

| changes | log10 Kd (nM) by replicate | signal with controls |
|---|---|---|
| Q27I+V29Y+L30Q+Y31N+W56E | 0.34 -0.13 0.07 0.63 0.72 0.16 | 0/18 |
| S25W+Q27W+Y31F+W56D+E61S | 0.14 0.10 0.18 0.04 0.01 0.26 | 1/18 (3.10) |
| S25A+L30D+Y31F+W56D | -0.22 -0.36 -0.25 -0.39 -0.49 -0.25 | 2/18 (2.92) |
| Q27T+V29G+W56E | -0.13 -0.16 -0.51 -0.61 -0.42 -0.17 | 0/18 |
| S25F+V29P+N35T+S38A+W56N | 0.07 -0.11 -0.07 -0.07 -0.11 0.12 | 1/18 (3.66) |
| S25Q+L30A+Y31M+K36A+W56D | -0.22 -0.25 -0.08 -0.43 0.05 -0.29 | 0/18 |
| S26G+S28G+W56G+T59Q | 0.34 0.32 -0.02 0.14 0.17 0.37 | 0/18 |
| S25L+S26R+W56Q+S103T | 0.15 0.09 -0.01 0.20 -0.09 0.20 | 1/18 (3.08) |
| S25V+Q27W+R34H+W56N+E61M | 0.00 0.09 -0.15 -0.21 -0.13 0.05 | 2/18 (3.69) |
| S25Q+Q27D+L30D+Y31Q+W56D | 0.04 -0.03 -0.43 -0.18 -0.26 0.11 | 5/18 (2.48) |
| S25L+V29I+Y31C+W56D | -0.13 -0.17 -0.31 -0.28 -0.33 -0.10 | 1/18 (2.82) |
| S25Q+Q27T+Y31Q+W56D | 0.27 0.05 0.02 -0.21 0.06 0.19 | 4/18 (2.47) |
| S25L+S26M+W56H+T59Q+S62D | -0.04 0.10 0.26 -0.20 0.21 0.29 | 0/18 |
| K24H+Q27P+L30R+W56N+S62Q+Q96D | 0.21 0.16 0.26 0.24 0.07 0.37 | 1/18 (1.47) |
| S26G+S28G+L30D+W56G+T59Q+E61W | 0.11 -0.08 0.03 0.02 -0.02 -0.01 | 1/18 (1.99) |
| S26Q+V29Q+L30E+W56H+E61C+S62D | 0.61 -0.23 -0.12 -0.82 -0.41 -0.08 | 0/18 |
| S25V+S26Q+Q27P+V29Y+W56Q | 0.17 0.14 -0.04 -0.20 -0.02 0.21 | 3/18 (2.58) |
| S26L+W56H+S62D+Q96L+S103M | 1.18 0.94 1.05 0.93 1.10 0.73 | 0/18 |
| S25L+V29W+K36F+N37W+W56G | 0.42 0.51 0.25 -0.09 -0.04 0.59 | 1/18 (4.48) |
| K24D+V29W+W56G+S62D | -0.38 -0.42 -0.47 -0.62 -0.50 -0.36 | 0/18 |
| Q27I+V29Y+L30G+R34T+W56A | 0.10 0.12 -0.10 -0.22 -0.15 -0.04 | 0/18 |
| S25L+Q27P+R34H+W56N+E61M | 0.39 0.22 0.29 0.23 -0.01 0.41 | 1/18 (1.63) |
| K24N+S25V+V29W+W56G+A57G+S58N | -0.13 -0.16 0.24 -0.23 -0.25 0.28 | 2/18 (2.09) |
| S26Q+V29Q+K36F+W56N+S62D | 0.24 -0.05 0.01 -0.28 -0.18 -0.08 | 1/18 (3.06) |
| S25M+Y31M+S33H+W56S+T59L | 0.18 0.39 0.34 0.10 0.33 0.32 | 0/18 |
| S25I+S28E+Y31F+W56D | -0.39 -0.37 -0.45 -0.39 -0.45 -0.35 | 0/18 |
| S25F+S33H+N35T+W56N | 0.77 0.66 0.75 0.37 0.47 0.73 | 1/18 (3.23) |
| Y31Q+E32Q+W56D | 0.00 0.00 -0.04 0.01 -0.25 0.04 | 2/18 (2.31) |
| S26G+S28G+V29E+W56G+T59Q | -0.30 -0.36 -0.54 -0.44 -0.33 -0.41 | 1/18 (2.97) |
| S25Q+S28M+S38A+W56D+R99W | 0.29 0.29 0.20 -0.04 0.18 0.39 | 1/18 (1.92) |
| Q27I+V29Y+Y31G+S33D+W56E | 0.02 0.19 0.17 0.20 -0.03 0.37 | 2/18 (2.58) |
| S25F+R34T+N35T+K36F+W56N | 0.20 0.25 -0.09 0.08 0.24 0.32 | 0/18 |
| L30K+Y31A+W56D | 0.23 0.30 0.17 0.33 0.14 0.52 | 0/18 |
| K24H+S25Q+Q27P+S38N+W56N | -0.11 -0.25 -0.16 -0.35 -0.27 -0.04 | 0/18 |
| K24L+Q27S+V29Y+R34M+W56E | 0.51 0.36 0.56 0.47 0.39 0.65 | 1/18 (3.53) |
| Q27G+V29W+S33D+N35V+W56G | 0.01 -0.06 -0.23 -0.30 -0.06 -0.06 | 1/18 (2.90) |
| V29W+K36F+N37W+W56N+S62D | 0.03 -0.31 -0.32 -0.13 -0.18 -0.11 | 1/18 (2.50) |
| V29E+W56D | -0.03 0.20 -0.20 -0.02 0.13 0.08 | 1/18 (3.62) |
| S25F+L30A+N35T+S38N+W56N | 0.72 0.63 0.61 0.22 0.42 0.50 | 0/18 |
| R34M+W56E+E61M | 0.52 0.73 0.26 0.47 0.32 0.81 | 1/18 (1.73) |
| K24M+S25L+S26M+W56H+T59L+S62D | ND ND ND ND ND ND | 1/18 (0.98) |
| L30D+Y31G+S33Q+W56D | -0.12 0.27 -0.22 -0.29 -0.14 0.05 | 1/18 (2.72) |
| S25V+R34G+N35T+W56N+T59E | 0.09 0.02 0.02 -0.03 0.11 0.07 | 0/18 |
| Q27L+V29Y+W56E | 0.60 -0.01 0.06 -0.32 0.15 -0.10 | 0/18 |

Excerpt, the first 3 entries:

| changes | log10 Kd (nM) by replicate | signal with controls |
|---|---|---|
| Q27I+V29Y+L30Q+Y31N+W56E | 0.34 -0.13 0.07 0.63 0.72 0.16 | 0/18 |
| S25W+Q27W+Y31F+W56D+E61S | 0.14 0.10 0.18 0.04 0.01 0.26 | 1/18 (3.10) |
| S25A+L30D+Y31F+W56D | -0.22 -0.36 -0.25 -0.39 -0.49 -0.25 | 2/18 (2.92) |